The record followed here is PubChem BioAssay AID625 (Vanderbilt High Throughput Screening Facility, 2007).

By UniProt entry, the sequences of proteins in these tests, tags left out.
UniProt P08173, whole entry, looked up: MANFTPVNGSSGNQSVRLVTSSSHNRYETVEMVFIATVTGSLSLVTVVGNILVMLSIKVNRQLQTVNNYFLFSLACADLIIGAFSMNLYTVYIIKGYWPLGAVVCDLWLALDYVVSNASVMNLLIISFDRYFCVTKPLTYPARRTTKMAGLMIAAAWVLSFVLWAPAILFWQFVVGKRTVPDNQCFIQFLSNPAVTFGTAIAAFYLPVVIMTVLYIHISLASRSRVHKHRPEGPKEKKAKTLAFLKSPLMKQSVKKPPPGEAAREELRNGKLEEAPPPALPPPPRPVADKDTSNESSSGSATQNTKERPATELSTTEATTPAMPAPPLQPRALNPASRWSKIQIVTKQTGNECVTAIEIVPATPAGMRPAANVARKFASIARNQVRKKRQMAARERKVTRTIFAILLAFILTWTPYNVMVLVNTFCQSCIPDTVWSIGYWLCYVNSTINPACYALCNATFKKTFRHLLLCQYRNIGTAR

Only a part is listed here, and it is no random draw. Activity calls are given as the source filed them.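 The calls were made as follows: active = fluorescence slope after compound addition differing from the mean of all tested samples at 99.7% confidence, mostly higher but some lower; inactive = the rest.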

This assay has as its target Muscarinic acetylcholine receptor M4 (Homo sapiens) (UniProt P08173). In words: compounds altering M4/GIRK thallium flux, either direction, primary screen, M4 allosteric agonist project, cell-based, HEK293 M4/GIRK, BTC-AM (AID 625).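 Also: thallium influx through GIRK channels coupled to M4 in HEK293 cells with BTC-AM dye.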 The conditions noted are these: at 10 µM, actives lie on both sides.
For the compound `CN(C)CCOC(=O)C(O)(c1ccccc1)C1CCCCC1` (stereo unspecified), the fluorescence slope was inactive: 0.00359.
